{"source": "ChEMBL document CHEMBL3045755", "about": "“Specific and differential inhibition of very-long-chain fatty acid elongases from Arabidopsis thaliana by different herbicides” (Proc Natl Acad Sci U S A, 2004)", "tested_on": "Saccharomyces cerevisiae", "assay": "Growth inhibition of Saccharomyces cerevisiae INVSc1 at 100 uM after 18 to 20 hr", "type": "organism-based", "details": "in vivo", "in_short": "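Yeast strains expressing the active elongases were induced in raffinose/galactose medium with herbicide at 100 μM for the 18–20 h incubation. Growth was followed by optical density and compared with cultures lacking inhibitor.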"}
{"smiles": "CC(C)OP(=S)(OC(C)C)SCCNS(=O)(=O)c1ccccc1", "values": [{"measurement": "Activity", "value": "Non-toxic"}]}
